# This is a selection; strong and weak results do not stand in their true shares. Calls of active or inactive are those of the source.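 How the source made its calls: active means inhibition above about 21% made by adding two undisclosed values (limit read from the data); inactive means the rest.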
# Protein sequences, listed by entry. Tags and fused reporters are not part of them.
# UniProt Q99873, whole entry, looked up: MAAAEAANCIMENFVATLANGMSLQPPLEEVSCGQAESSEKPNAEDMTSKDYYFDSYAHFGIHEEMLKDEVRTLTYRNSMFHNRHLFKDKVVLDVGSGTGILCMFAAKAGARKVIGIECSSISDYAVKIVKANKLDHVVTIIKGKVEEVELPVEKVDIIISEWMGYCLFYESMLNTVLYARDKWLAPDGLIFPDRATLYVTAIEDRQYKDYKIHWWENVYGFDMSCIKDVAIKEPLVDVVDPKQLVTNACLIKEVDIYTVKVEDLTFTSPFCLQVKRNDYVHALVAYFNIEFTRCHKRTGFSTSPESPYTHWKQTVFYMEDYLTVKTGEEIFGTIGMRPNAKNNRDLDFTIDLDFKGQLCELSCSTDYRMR
# Target: Protein arginine N-methyltransferase 1 (Homo sapiens) (UniProt Q99873)
# Test: human PRMT1 activity-probe blockers – biochemical, fluorescence polarization, primary screen (AID 652257)
# Settings: recombinant PRMT1, activity-based probe fluorescence polarization; at 2.79 µM; hits give high values
row,Structure (SMILES),inhibition
1,Cc1cc(SC(NC=O)C(Cl)(Cl)Cl)ncn1 (stereo unspecified),active: 82.7%
2,O=P(Nc1ccccn1)(c1cccc2ccccc12)c1cccc2ccccc12,inactive: 0.52%
3,O=[N+]([O-])c1ccc(Nc2ccc(Oc3ccc([N+](=O)[O-])cc3[N+](=O)[O-])cc2)c([N+](=O)[O-])c1,inactive: -1.22%
4,COC(=O)C1(C)COP(=O)(N2CCCC2)OC1 (stereo unspecified),inactive: -3.77%
5,COP1(=S)c2c(C)nn(CCC#N)c2N=C(c2ccc(F)cc2)N1C (stereo unspecified),inactive: 4.51%
6,O=C(O)C(=O)c1ccc(N(CCCl)CCCl)cc1,inactive: -0.17%
7,O=C(Nc1ccncc1[N+](=O)[O-])c1ccc([N+](=O)[O-])cc1[N+](=O)[O-],inactive: -2.01%
8,O=C(COc1ccccc1)OC1CN2CCC1CC2 (stereo unspecified),inactive: -1.22%
9,O=C(OC1CN2CCC1CC2)c1cccc([N+](=O)[O-])c1 (stereo unspecified),inactive: 3.07%
10,CCOC(=O)c1ccc(NC(=O)C(C)(CCl)SC)cc1 (stereo unspecified),inactive: -1.7%
11,CCC(C)N(CC(C)C)C(=S)SC(NC(C)=O)C(Cl)(Cl)Cl (stereo unspecified),inactive: -0.18%
12,Cc1c2c(nc3ccccc13)SC(C(Cl)Cl)C2 (stereo unspecified),inactive: -2.23%
13,Cc1cc(=O)[nH]c(N[N+](=O)[O-])n1,inactive: -1.46%
14,O=C(OC1CN2CCC1CC2)C12CC3CC(CC(C3)C1)C2 (stereo unspecified),inactive: -2.37%
15,O=P1(N(CCCl)CCCl)Nc2ccccc2N1,inactive: 5.74%
16,O=P1(N(CCCl)CCCl)OCCCN1CCCl (stereo unspecified),inactive: -0.78%
17,COc1cc(I)ccc1[As](=O)(O)O,inactive: -1.8%
18,COc1ccc2nc(NP(=O)(c3ccccc3)c3ccccc3)sc2c1,inactive: -0.15%
19,O=[N+]([O-])c1cc(Oc2ccc([N+](=O)[O-])cc2C(F)(F)F)cc([N+](=O)[O-])c1,inactive: 0.66%
20,COc1ccc(N/C(=N/P(=O)(N2CCOCC2)N2CCOCC2)N2CCOCC2)cc1,inactive: 16.4%
21,COc1cc(C(=O)NCC2(N3CCOCC3)CCCCC2)ccc1OCC(C)C,inactive: -0.66%

row,Structure (SMILES),inhibition
1,O=[N+]([O-])c1ccc(-c2cc([N+](=O)[O-])c(O)c([N+](=O)[O-])c2)cc1,inactive: -2%
2,C[As](=O)(O)c1cccc(C(=O)O)c1,inactive: -2.97%
3,O=[As](O)(c1ccc(O)cc1)c1ccccc1O,inactive: 1.42%
4,Cc1ccc(OP(=O)(Nc2ccc([N+](=O)[O-])cn2)Oc2ccc(C)cc2)cc1,inactive: -1.62%
5,[N-]=[N+]=NC1CCCCC1NC(=O)c1cc([N+](=O)[O-])cc([N+](=O)[O-])c1 (stereo unspecified),inactive: -1%
6,Cc1ccc2nc3c(c(C)c2c1)CC(C(Cl)Cl)S3 (stereo unspecified),inactive: 5.14%
7,ClCCSc1nnc(-c2cccnc2)o1,inactive: 1.34%
8,CC(C)c1ccc(OP(=O)(Nc2ccccn2)Oc2ccccc2F)cc1 (stereo unspecified),inactive: 1.66%
9,COC(=O)C1(C)COP(=O)(N2CCCCCC2)OC1 (stereo unspecified),inactive: 2.42%
10,CCN(CC)C(=S)SC(NC=O)C(Cl)(Cl)Cl (stereo unspecified),inactive: 2.71%
11,O=C(OC1CN2CCC1CC2)c1cccc2[nH]cnc12 (stereo unspecified),inactive: 2%
12,CC(C)NC(=O)NP(=O)(Oc1ccccc1)Oc1ccccc1,inactive: 0.64%
13,O=P(Nc1nccs1)(Oc1ccccc1)Oc1ccccc1,inactive: -2.84%
14,CCOP1(=S)c2c(C)nn(CCC#N)c2N=C(c2ccccc2F)N1C (stereo unspecified),inactive: 2.16%
15,O=C(O)COc1ccc([As](=O)(O)O)cc1[N+](=O)[O-],inactive: -3%
16,Nc1ccccc1[As](=O)(O)c1ccccc1,inactive: 0.12%
17,NC(=O)Nc1ccc([As](=O)(O)O)cc1,inactive: -3.12%
18,CN(C(=O)Cc1ccccc1)[C@@H]1CC[C@]2(CCCO2)C[C@H]1N1CCCC1,inactive: -2.23%
19,CCOP1(=S)c2c(C)nn(CCC#N)c2N=C(c2ccc(F)cc2)N1C (stereo unspecified),inactive: -0.38%
20,N#CCCN(C(=O)COC(=O)C(O)(c1ccccc1)c1ccccc1)c1ccc(F)cc1,inactive: -2.2%
21,CN(C(=O)Cc1ccc(Cl)c(Cl)c1)[C@H]1CC[C@@]2(CCCO2)C[C@@H]1N1CCCC1,inactive: 0.78%

row,Structure (SMILES),inhibition
1,CN(C)C(=O)c1cc([N+](=O)[O-])cc2c1-c1c(cc([N+](=O)[O-])cc1[N+](=O)[O-])C2=O,inactive: 5.74%
2,O=[N+]([O-])c1ccc2c(c1)nnn2O,inactive: 0.89%
3,O=C(OC1CN2CCC1CC2)c1ccc(Cl)cc1 (stereo unspecified),inactive: 5.99%
4,CS(=O)(=O)c1ccc(Cl)c(NC(=O)COC(=O)C(O)(c2ccccc2)c2ccccc2)c1,inactive: -2.6%
5,COc1cc(C(=O)NCC2(N3CCOCC3)CCCCC2)cc(Cl)c1OC(C)C,inactive: 3.17%
6,O=[As](O)(O)c1cccnc1,inactive: -3.61%
7,O=[As](O)(c1cccc(O)c1)c1cccc(O)c1,inactive: -2.59%
8,Cc1cccc(OCC(=O)OC2CN3CCC2CC3)c1 (stereo unspecified),inactive: -0.28%
9,Cc1ccc(NCCc2c([N+](=O)[O-])cc([N+](=O)[O-])cc2[N+](=O)[O-])cc1,inactive: 1.4%
10,Nc1cccc2c([As](=O)(O)O)cccc12,active: 55.5%
11,CCCOP(=S)(Nc1nc(N)cc(=O)[nH]1)OCCC,inactive: -3.75%
12,CCOP(=O)(Nc1cccc2ccccc12)OCC,inactive: -0.99%
13,COc1cc(C2NCCC3(OCCO3)C2(C)C)cc(OC)c1OC (stereo unspecified),inactive: -3.19%
14,CCOP(=O)(NC(=NC(C)c1ccccc1)NC(C)c1ccccc1)OCC (stereo unspecified),inactive: -0.46%
15,CCC1=CC2Cc3nc4ccc(Cl)cc4c(N)c3C(C1)C2 (stereo unspecified),inactive: 3.04%
16,O=P1(Nc2ccccn2)COc2ccccc2OC1,inactive: -1.13%
17,CN(CCCl)Cc1cc(Cl)c(NC2=NCCN2)c(Cl)c1,inactive: 0.52%
18,CCOP(=O)(Nc1ccc(C)cn1)OCC,inactive: -1.06%
19,CC(C)(C)C(=O)NC(Sc1ncccn1)C(Cl)(Cl)Cl (stereo unspecified),active: 47.2%
20,Clc1n[nH]nc1-c1nn[nH][15n]1,inactive: 0.98%
21,O=P1(N(CCCl)CCCl)NCCC(C(F)(F)F)O1 (stereo unspecified),inactive: 4.23%

row,Structure (SMILES),inhibition
1,COc1ccccc1CNC(=O)COC(=O)C(O)(c1ccccc1)c1ccccc1,inactive: 1.13%
2,CN(C(=O)Cc1ccc(Cl)c(Cl)c1)C1CCCC[C@@H]1N1CCCC1 (stereo partly specified),inactive: -2.3%
3,CN(C(=O)Cc1ccc(Cl)c(Cl)c1)[C@@H]1CCCC[C@H]1N1CCCC1,inactive: -1.28%
4,CC(C)/C=N\N=C(\N)N[N+](=O)[O-],inactive: 0.86%
5,CC1(CBr)Cn2c(nc3ccccc3c2=O)S1 (stereo unspecified),inactive: 9.02%
6,Cc1ccc(C(=O)OC2CN3CCC2CC3)cc1 (stereo unspecified),inactive: 1.4%
7,CC1CCC(C(C)C)C(OP(=O)(Nc2ccccn2)c2ccccc2)C1 (stereo unspecified),inactive: 1.87%
8,Cc1nn(-c2ccccc2)c2c1P(=O)(N1CCOCC1)N(C)C(c1ccccc1)=N2 (stereo unspecified),inactive: 1.62%
9,CN(C)C1(CNC(=O)c2ccc(S(C)(=O)=O)cc2)CCCCC1,inactive: 3.17%
10,CCCC1OP(=O)(Nc2ccccc2)OCC1CC (stereo unspecified),inactive: 1.86%
11,O=C(/C=C/c1ccccc1)OC1CN2CCC1CC2 (stereo unspecified),inactive: -1.22%
12,Cc1ccc(S(=O)(=O)N(CCCN)CCCc2c(C)nc(N)[nH]c2=O)cc1,inactive: 1.63%
13,O=P1(Nc2ncccn2)COc2ccccc2OC1,inactive: 0.66%
14,Nc1cccc([As](=O)(O)c2ccccc2)c1,inactive: -8.43%
15,NS(=O)(=O)c1cccc(NC(=O)COC(=O)C(O)(c2ccccc2)c2ccccc2)c1,inactive: -0.93%
16,O=P1(Nc2ccc(Br)cn2)COc2ccccc2OC1,inactive: 0%
17,Cc1ccc(OCC(=O)OC2CN3CCC2CC3)cc1 (stereo unspecified),inactive: -0.24%
18,O=[As](O)(c1cccs1)c1cccs1,inactive: 1.76%

# — PubChem BioAssay AID652257 (The Scripps Research Institute Molecular Screening Center, 2013)
